By UniProt entry, the sequences of proteins in these tests, tags left out.
UniProt Q13547, whole entry: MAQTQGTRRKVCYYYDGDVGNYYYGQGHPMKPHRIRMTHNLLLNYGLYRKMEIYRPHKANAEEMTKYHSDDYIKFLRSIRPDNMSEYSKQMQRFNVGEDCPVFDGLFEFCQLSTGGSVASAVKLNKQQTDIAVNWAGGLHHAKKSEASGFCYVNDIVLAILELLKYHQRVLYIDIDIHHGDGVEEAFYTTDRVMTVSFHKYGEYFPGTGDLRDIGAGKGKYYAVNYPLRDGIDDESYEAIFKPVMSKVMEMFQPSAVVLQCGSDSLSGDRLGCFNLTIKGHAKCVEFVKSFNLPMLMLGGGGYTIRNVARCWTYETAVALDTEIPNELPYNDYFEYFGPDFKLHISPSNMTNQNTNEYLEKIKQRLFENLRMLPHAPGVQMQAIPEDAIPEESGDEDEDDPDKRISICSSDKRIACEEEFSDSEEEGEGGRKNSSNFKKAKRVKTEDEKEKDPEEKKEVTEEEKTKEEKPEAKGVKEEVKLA

In US8551988B2, “Benzimidazole derivatives: preparation and pharmaceutical applications” (Mei Pharma, Inc., priority 2003, dated 2013):

Target: HDAC1 enzyme (recombinant GST-HDAC1) (Homo sapiens (Human), UniProt Q13547)
Experiment: In vitro HDAC assay (BIOMOL fluorescent-based HDAC activity assay), HDAC1
Type: biochemical

## O=C(/C=C/c1ccc2c(c1)ncn2CCCO)NO [Compound 47, N-Hydroxy-3[1-(3-hydroxy-propyl)-1H-benzimidazol-5-yl]-acrylamide]
  pIC50: 5.96

pIC50: −log10 of the molar value.
